ChEMBL document CHEMBL1135556, “alpha-bromoacetophenone derivatives as neutral protein tyrosine phosphatase inhibitors: structure-Activity relationship” (Bioorg Med Chem Lett, 2002)

Assays:
[1] = biological target: T1, Tyrosine-protein phosphatase non-receptor type 6 (Homo sapiens, UniProt P29350); assay: Dissociation constant towards SHP 1 receptor-inhibitor complex was determined using PNP as substrate
[2] = biological target: Tyrosine-protein phosphatase non-receptor type 6, SHP-1 (Homo sapiens) (UniProt P29350); assay: First-order rate constant (K inact) for conversion of the ExI complex (SHP-1 -inhibitor complex) into the covalent adduct, EI was determined using PNP as substrate
[3] = biological target: Tyrosine-protein phosphatase non-receptor type 6, SHP-1 (Homo sapiens) (UniProt P29350); assay: Dissociation constant towards SHP-1 receptor-inhibitor complex was determined using PNP as substrate
[4] = biological target: T1, Tyrosine-protein phosphatase non-receptor type 6

Question: O=C(O)CCC(NC(=O)[C@H](CCC(=O)O)NC(=O)CNC(=O)c1ccccc1-c1ccc(C(=O)CBr)cc1)C(=O)O (some centres undefined) was tested. Which Ki [1] did it give?
Answer: > 200 µM

Question: What about the kinact [2] of the same molecule?
Answer: 0.36 min⁻¹

Question: What about the Ki [3] of the same molecule?
Answer: 9.9 µM

Question: What about the kinact [4] of the same molecule?
Answer: > 0.13 min⁻¹
